The target of the assay is Nociceptin receptor (Homo sapiens, UniProt P41146). The assay is described as follows: Displacement of [3H]N/OFQ from human recombinant NOP receptor expressed in CHO cells.

Usually pKi stands for −log10 of the Ki, conventionally taken in molar units. As to `O=C(NCCCN1CCC2(CC1)C(=O)NCN2c1ccccc1)[C@H]1CCCN1Cc1ccccc1`, the pKi was under 5.
Next, `CCn1c(=O)n(C2CCN(CCCNC(=O)[C@H]3CCCN3Cc3ccccc3)CC2)c2ccccc21`: under 5.

The values are drawn from ChEMBL document CHEMBL1781947, “Structure-activity studies on the nociceptin/orphanin FQ receptor antagonist 1-benzyl-N-{3-[spiroisobenzofuran-1(3H),4'-piperidin-1-yl]propyl} pyrrolidine-2-carboxamide” (Bioorg Med Chem, 2009).
